# Reference: patent US7759385B2, “4-substituted 1-aminocyclohexane compounds for utilization as ORL1-receptor and mu-opiate receptor ligands” (priority 2002, dated 2010)
# Protein sequences, listed by entry. Tags and fused reporters are not part of them.
# UniProt P35372, whole entry: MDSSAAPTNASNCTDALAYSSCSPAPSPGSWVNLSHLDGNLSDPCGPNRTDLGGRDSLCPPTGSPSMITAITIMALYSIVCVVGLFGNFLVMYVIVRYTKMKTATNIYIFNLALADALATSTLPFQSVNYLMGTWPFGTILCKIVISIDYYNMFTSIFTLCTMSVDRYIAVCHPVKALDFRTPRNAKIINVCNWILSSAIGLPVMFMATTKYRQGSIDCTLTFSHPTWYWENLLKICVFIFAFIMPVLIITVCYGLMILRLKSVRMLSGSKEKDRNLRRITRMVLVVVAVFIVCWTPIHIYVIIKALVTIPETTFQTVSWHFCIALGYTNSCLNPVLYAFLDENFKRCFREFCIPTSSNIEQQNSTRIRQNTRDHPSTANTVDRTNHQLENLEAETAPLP
# UniProt P41146, whole entry: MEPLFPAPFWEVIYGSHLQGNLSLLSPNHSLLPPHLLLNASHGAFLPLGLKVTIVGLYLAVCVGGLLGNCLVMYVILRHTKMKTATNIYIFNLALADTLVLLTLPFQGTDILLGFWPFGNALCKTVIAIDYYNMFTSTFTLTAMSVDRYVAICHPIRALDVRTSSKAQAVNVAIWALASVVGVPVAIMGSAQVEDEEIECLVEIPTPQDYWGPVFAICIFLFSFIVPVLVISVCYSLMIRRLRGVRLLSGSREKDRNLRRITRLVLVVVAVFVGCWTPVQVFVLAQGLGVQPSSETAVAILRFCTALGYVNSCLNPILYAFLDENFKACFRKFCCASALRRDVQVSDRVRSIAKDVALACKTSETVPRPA
# Columns and labels:
# human μ opiate receptor = human μ opiate receptor (Homo sapiens, UniProt P35372); test: μ opiate receptor binding assay, membrane preparation of CHO-K1 cells, [3H]-naloxone (or DAMGO) displacement; details: read-out: μ Ki; radioligand [3H]-naloxone 1 nmole/l; Cheng-Prusoff
# ORL1 receptor = ORL1 receptor (Homo sapiens, UniProt P41146); test: ORL1 receptor binding assay with 3H-nociceptin/orphanin FQ, membranes of recombinant CHO-ORL1 cells; details: read-out: ORL1 Ki, 3H-nociceptin/orphanin FQ 0.5 nM
smiles,measurement,setting,value
CN(C)C1(c2ccccc2)CCC(=CC(=O)N2CCC(c3c[nH]c4ccccc34)C2)CC1 (centres unmarked),Ki,human μ opiate receptor,0.8 nM
same,Ki,ORL1 receptor,20 nM
